# From patent US20050227337A1, “Method for producing ascorbic acid intermediates” (priority 1998, published 2005)
# Amino acid sequences for entries named in this document (tags omitted).
# UniProt P06632, whole entry F22Y/A272G: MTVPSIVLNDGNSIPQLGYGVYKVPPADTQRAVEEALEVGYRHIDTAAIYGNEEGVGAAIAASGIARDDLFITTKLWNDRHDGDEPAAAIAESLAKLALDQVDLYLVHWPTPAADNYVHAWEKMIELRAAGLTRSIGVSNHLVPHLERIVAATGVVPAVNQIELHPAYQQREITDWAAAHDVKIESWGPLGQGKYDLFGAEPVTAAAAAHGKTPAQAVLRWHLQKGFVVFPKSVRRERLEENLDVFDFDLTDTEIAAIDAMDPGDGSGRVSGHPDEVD
# Like-named read-outs stand apart in the source and are kept apart here.
# Legend:
# Format in all cases: biochemical
# Reductase = Reductase (Corynebacterium sp., UniProt P06632, A272G/F22Y); settings: for Km: read-out: Km for DKG
# Reductase A F22Y/A272G [1] = biological target: T1, Reductase A F22Y/A272G (Corynebacterium sp., UniProt P06632, A272G/F22Y); settings: for % Activity, 0 min / % Activity, 5 min / % Activity, 10 min: 20 mM, 45.4° C., 25 mM MOPS pH 7, all % +/- 10%; for Half-life of reductase: 25 mM MOPS pH 7.0
# T1 construct: made in house; host or cells: E. coli
# Reductase A F22Y/A272G [2] = biological target: T1, Reductase A F22Y/A272G; settings: pH 7.0, 30° C.
# [3] = salt concentrations increased to 250 mM
compound,measurement,setting,value
"O=C(O)C(=O)[C@@H](O)[C@H](O)[C@@H](O)CO [2-KLG, 2-keto-L-gulonic acid]",mode of inhibition of reductase,"Reductase; 2-KLG 0 to 150 mM versus DKG, pH 7",uncompetitive inhibition
same,decrease of reaction rate,"Reductase; KLG concentration increased from 0 to 150 mM, pH 7",2-4 fold
same,"% Activity, 0 min",Reductase A F22Y/A272G [1],100%
same,"% Activity, 5 min",Reductase A F22Y/A272G [1],51%
same,"% Activity, 10 min",Reductase A F22Y/A272G [1],29%
same,reductase activity remaining after incubation,"Reductase A F22Y/A272G [1]; 500 mM 2-KLG, 50 mM bis-tris pH 7, 45° C.",does not significantly lose any activity
same,stabilization of reductase,"Reductase A F22Y/A272G [1]; intermediate 2-KLG concentrations (0-500 mM), pH 7, 45° C.",partial stabilization
[Ca+2].[Cl-].[Cl-] [CaCl2],reductase activity,Reductase A F22Y/A272G [2]; concentrations of 20 mM or more,drops
"O=C(O)C(=O)[C@@H](O)[C@H](O)C(=O)CO [DKG, 2,5-diketo-D-gluconate]",Km,"Reductase; 150 mM 2-KLG, pH 7",2 to 4 mM
same,Km,"Reductase; [NaCl] 0 mM, NADPH at least 3 times above its Km",6 to 14 mM
same,Km,"Reductase; [NaCl] 100 mM, NADPH at least 3 times above its Km",6 to 14 mM
same,Km,"Reductase; [NaCl] 200 mM, NADPH at least 3 times above its Km",6 to 14 mM
same,Km,"Reductase; [NaCl] 400 mM, NADPH at least 3 times above its Km",6 to 14 mM
same,Km,"Reductase; pH 7 conditions, no 2-KLG",10 to 12 mM
O=S(=O)([O-])[O-].[K+].[K+] [K2SO4],% Remaining activity after 10 min incubation,"Reductase A F22Y/A272G [1]; 100 mM, pH 7, 45° C.",90-100%
same,% Remaining activity after 10 min incubation,"Reductase A F22Y/A272G [1]; 0.5 M, pH 7, 45° C.",100%
[Cl-].[K+] [KCl],reductase activity,Reductase A F22Y/A272G [2]; [3],drops
same,reductase activity,Reductase A F22Y/A272G [2]; up to 100 mM salt,stays the same or slightly increases
same,% Remaining activity after 10 min incubation,"Reductase A F22Y/A272G [1]; 0.5 M, pH 7, 45° C.",100%
NC(=O)C1=CN([C@@H]2O[C@H](COP(=O)(O)OP(=O)(O)OC[C@H]3O[C@@H](n4cnc5c(N)ncnc54)[C@H](OP(=O)(O)O)[C@@H]3O)[C@@H](O)[C@H]2O)C=CC1 [NADPH],increase of Km for NADPH over the Km determined without NaCl,"Reductase; 200 mM NaCl, pH 7 bis-tris, approx. 1.5 mg/ml DKG, 30° C.",10-40 fold
same,% Remaining activity after 10 min incubation,"Reductase A F22Y/A272G [1]; 100 mM, pH 7, 45° C.",80-90%
"[Cl-].[Na+] [NaCl, sodium chloride]",reductase activity,Reductase A F22Y/A272G [2]; [3],drops
same,reductase activity,Reductase A F22Y/A272G [2]; up to 100 mM salt,stays the same or slightly increases
same,reductase rate,"Reductase; NaCl 100 mM or greater, 250 uM NADPH, 10-20 mM DKG",decreased
same,mode of inhibition of reductase,Reductase; NaCl versus cofactor NADPH,competitive
same,"% Activity, 0 min",Reductase A F22Y/A272G [1],100%
same,"% Activity, 5 min",Reductase A F22Y/A272G [1],72%
same,"% Activity, 10 min",Reductase A F22Y/A272G [1],59%
same,% Remaining activity after 10 min incubation,"Reductase A F22Y/A272G [1]; 0.5 M, pH 7, 45° C.",100%
[I-].[Na+] [NaI],% Remaining activity after 12 min incubation,"Reductase A F22Y/A272G [1]; 0.1 M, pH 7, 45° C.",80-85%
O=C(O)C(=O)[C@@H](O)[C@H](O)[C@@H](O)CO.[Na] [NaKLG],stabilization of reductase,"Reductase A F22Y/A272G [1]; 0-400 mM NaKLG, 46.6-46.9° C., concentration dependent",clearly stabilizes
same,Half-life of reductase,"Reductase A F22Y/A272G [1]; 100 mM NaKLG, 46.6-46.9° C.",5.5 ± 1 min
same,Half-life of reductase,"Reductase A F22Y/A272G [1]; 200 mM NaKLG, 46.6-46.9° C.",7.5 ± 1.5 min
same,Half-life of reductase,"Reductase A F22Y/A272G [1]; 300 mM NaKLG, 46.6-46.9° C.",10 ± 3 min
same,Half-life of reductase,"Reductase A F22Y/A272G [1]; 400 mM NaKLG, 46.6-46.9° C.",18.5 ± 3 min
K2PO4,% Remaining activity after 10 min incubation,"Reductase A F22Y/A272G [1]; 200 mM, pH 7, 45° C.",65-75%
